For this assay, the target named is Fungal ACC2 (UniProt Q00955). The note with it: read-out: Fungal ACC2 (IC50, in vitro ACC2 inhibition).

By UniProt entry, the sequences of proteins in these tests, tags left out.
UniProt Q00955, whole entry: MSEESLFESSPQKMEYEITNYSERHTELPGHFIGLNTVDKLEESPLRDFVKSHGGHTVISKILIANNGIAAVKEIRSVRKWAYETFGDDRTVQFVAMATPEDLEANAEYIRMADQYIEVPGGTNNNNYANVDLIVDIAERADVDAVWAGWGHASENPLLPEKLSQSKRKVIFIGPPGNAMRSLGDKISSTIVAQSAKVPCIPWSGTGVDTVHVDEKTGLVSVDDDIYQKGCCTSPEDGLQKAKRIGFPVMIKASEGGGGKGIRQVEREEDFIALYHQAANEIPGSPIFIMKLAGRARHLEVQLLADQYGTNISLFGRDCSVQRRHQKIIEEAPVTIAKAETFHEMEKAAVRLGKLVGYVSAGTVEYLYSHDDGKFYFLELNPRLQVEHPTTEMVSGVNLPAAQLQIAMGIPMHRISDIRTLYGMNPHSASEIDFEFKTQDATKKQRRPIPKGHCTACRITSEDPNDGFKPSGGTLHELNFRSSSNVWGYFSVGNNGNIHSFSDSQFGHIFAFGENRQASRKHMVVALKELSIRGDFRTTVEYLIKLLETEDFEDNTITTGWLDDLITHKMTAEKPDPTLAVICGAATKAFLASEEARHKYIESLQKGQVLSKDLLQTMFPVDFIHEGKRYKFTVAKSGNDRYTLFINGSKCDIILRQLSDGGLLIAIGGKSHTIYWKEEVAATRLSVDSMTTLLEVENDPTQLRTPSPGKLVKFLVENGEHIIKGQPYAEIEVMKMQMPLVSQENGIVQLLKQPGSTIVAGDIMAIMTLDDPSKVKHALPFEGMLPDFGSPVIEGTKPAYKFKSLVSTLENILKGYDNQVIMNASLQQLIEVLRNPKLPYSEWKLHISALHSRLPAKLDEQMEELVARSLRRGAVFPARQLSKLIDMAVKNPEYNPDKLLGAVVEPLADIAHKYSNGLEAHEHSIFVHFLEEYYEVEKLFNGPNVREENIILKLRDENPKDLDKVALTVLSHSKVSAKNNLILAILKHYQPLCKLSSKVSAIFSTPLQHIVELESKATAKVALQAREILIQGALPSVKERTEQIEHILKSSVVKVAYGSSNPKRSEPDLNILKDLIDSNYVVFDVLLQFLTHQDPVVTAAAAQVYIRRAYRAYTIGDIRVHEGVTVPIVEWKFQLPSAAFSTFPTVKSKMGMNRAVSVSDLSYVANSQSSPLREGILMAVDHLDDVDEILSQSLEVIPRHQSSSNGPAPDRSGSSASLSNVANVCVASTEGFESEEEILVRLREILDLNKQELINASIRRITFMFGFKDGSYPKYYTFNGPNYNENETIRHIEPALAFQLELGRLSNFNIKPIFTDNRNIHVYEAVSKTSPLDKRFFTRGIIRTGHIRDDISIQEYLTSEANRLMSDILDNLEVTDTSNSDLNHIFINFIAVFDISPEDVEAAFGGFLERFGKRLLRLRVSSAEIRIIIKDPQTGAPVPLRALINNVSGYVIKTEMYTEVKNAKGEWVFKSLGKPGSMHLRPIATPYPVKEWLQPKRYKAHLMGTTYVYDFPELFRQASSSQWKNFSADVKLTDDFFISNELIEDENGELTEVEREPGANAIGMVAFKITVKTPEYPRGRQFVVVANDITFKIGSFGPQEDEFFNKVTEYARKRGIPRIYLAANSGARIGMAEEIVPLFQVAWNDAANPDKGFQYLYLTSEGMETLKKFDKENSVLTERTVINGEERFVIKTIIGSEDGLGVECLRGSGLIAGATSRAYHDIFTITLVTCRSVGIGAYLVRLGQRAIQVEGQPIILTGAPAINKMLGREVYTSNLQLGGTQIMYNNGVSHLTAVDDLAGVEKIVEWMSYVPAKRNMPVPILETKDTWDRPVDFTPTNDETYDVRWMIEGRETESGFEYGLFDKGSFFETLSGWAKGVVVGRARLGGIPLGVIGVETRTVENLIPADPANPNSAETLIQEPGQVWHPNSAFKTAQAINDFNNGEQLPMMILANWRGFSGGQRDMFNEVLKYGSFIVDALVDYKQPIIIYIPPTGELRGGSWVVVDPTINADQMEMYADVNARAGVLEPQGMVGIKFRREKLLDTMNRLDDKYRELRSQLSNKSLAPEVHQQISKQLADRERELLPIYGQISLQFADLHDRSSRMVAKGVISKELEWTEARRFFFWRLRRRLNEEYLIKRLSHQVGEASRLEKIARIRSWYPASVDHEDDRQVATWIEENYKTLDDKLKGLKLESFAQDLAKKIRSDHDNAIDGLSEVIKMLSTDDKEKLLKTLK

The results in this text go back to US20190330224A1, “ACC INHIBITORS AND USES THEREOF” (Gilead Apollo, LLC, priority 2015, published 2019).

As a reminder, the IC50 is the concentration that inhibits the measured activity by half.

In the case of `COc1ccc(F)cc1[C@H](Cn1c(=O)n([C@H]2CCCNC2=O)c(=O)c2c(C)c(-n3nccn3)sc21)OC1CCOCC1` [Compound I-37, 1-((R)-2-(5-fluoro-2-methoxyphenyl)-2-((tetrahydro-2H-pyran-4-yl)oxy)ethyl)-5-methyl-3-((S)-2-oxopiperidin-3-yl)-6-(2H-1,2,3-triazol-2-yl)thieno[2,3-d]pyrimidine-2,4(1H,3H)-dione], the IC50 lay in the range of 0.7 to 2 nM.

Turning to `COc1ccc(F)cc1[C@H](Cn1c(=O)n([C@@H]2CCCNC2=O)c(=O)c2c(C)c(-n3nccn3)sc21)OC1CCOCC1` [Compound I-38, 1-((R)-2-(5-fluoro-2-methoxyphenyl)-2-((tetrahydro-2H-pyran-4-yl)oxy)ethyl)-5-methyl-3-((R)-2-oxopiperidin-3-yl)-6-(2H-1,2,3-triazol-2-yl)thieno[2,3-d]pyrimidine-2,4(1H,3H)-dione], the IC50 lay in the range of 0.7 to 2 nM.

`COc1ccc(F)cc1[C@H](Cn1c(=O)n([C@@H]2CCCN(C)C2=O)c(=O)c2c(C)c(-c3ncco3)sc21)OCCO` [Compound I-65, 1-((R)-2-(5-fluoro-2-methoxyphenyl)-2-(2-hydroxy-ethoxy)ethyl)-5-methyl-3-((R)-1-methyl-2-oxopiperidin-3-yl)-6-(oxazol-2-yl)thieno[2,3-d]pyrimidine-2,4(1H,3H)-dione]: the 50% inhibitory concentration (IC50) was in the range of 2 to 10 nM.

Consider `COc1ccc(F)cc1[C@H](Cn1c(=O)n([C@H]2CCCN(C(C)C)C2=O)c(=O)c2c(C)c(-n3nccn3)sc21)OCCO` [Compound I-74, 1-((R)-2-(5-fluoro-2-methoxyphenyl)-2-(2-hydroxy-ethoxy)ethyl)-3-((S)-1-isopropyl-2-oxopiperidin-3-yl)-5-methyl-6-(2H-1,2,3-triazol-2-yl)thieno[2,3-d]pyrimidine-2,4(1H,3H)-dione], for which the IC50 lay within 0.7 to 2 nM.

Regarding `COc1ccc(F)cc1[C@H](Cn1c(=O)n([C@@H]2CCCN(C(C)C)C2=O)c(=O)c2c(C)c(-n3nccn3)sc21)OCCO` [Compound I-75, 1-((R)-2-(5-fluoro-2-methoxyphenyl)-2-(2-hydroxy-ethoxy)ethyl)-3-((R)-1-isopropyl-2-oxopiperidin-3-yl)-5-methyl-6-(2H-1,2,3-triazol-2-yl)thieno[2,3-d]pyrimidine-2,4(1H,3H)-dione], the half-inhibitory concentration (IC50) was in the range of 0.7 to 2 nM.

Take `COc1ccc(F)cc1[C@H](Cn1c(=O)n([C@H]2CCCN(C(C)C)C2=O)c(=O)c2c(C)c(-n3nccn3)sc21)OC1CCOCC1` [Compound I-76, 1-((R)-2-(5-fluoro-2-methoxyphenyl)-2-((tetrahydro-2H-pyran-4-yl)oxy)ethyl)-3-((S)-1-isopropyl-2-oxopiperidin-3-yl)-5-methyl-6-(2H-1,2,3-triazol-2-yl)thieno[2,3-d]pyrimidine-2,4(1H,3H)-dione]: the IC50 fell in the range of 0.7 to 2 nM.

Consider `COc1ccc(F)cc1[C@H](Cn1c(=O)n([C@H]2CCN(C(C)C)C2=O)c(=O)c2c(C)c(-n3nccn3)sc21)OCCO` [Compound I-84, 1-((R)-2-(5-fluoro-2-methoxyphenyl)-2-(2-hydroxy-ethoxy)ethyl)-3-((S)-1-isopropyl-2-oxopyrrolidin-3-yl)-5-methyl-6-(2H-1,2,3-triazol-2-yl)thieno[2,3-d]pyrimidine-2.4(1H,3H)-dione], for which the IC50 lay within 0.7 to 2 nM.

On to `COc1ccc(F)cc1[C@H](Cn1c(=O)n([C@@H]2CCN(C(C)C)C2=O)c(=O)c2c(C)c(-n3nccn3)sc21)OCCO` [Compound I-85, 1-((R)-2-(5-fluoro-2-methoxyphenyl)-2-(2-hydroxy-ethoxy)ethyl)-3-((S)-1-isopropyl-2-oxopyrrolidin-3-yl)-5-methyl-6-(2H-1,2,3-triazol-2-1)thieno[2,3-d]pyrimidine-2,4(1H,3H)-dione], for which the IC50 lay in the range of 0.7 to 2 nM.

As to `COc1ccc(F)cc1[C@H](Cn1c(=O)n([C@@]2(C)CCC(=O)NC2)c(=O)c2c(C)c(-n3nccn3)sc21)OCCO` [Compound I-135, 1-((R)-2-(5-fluoro-2-methoxyphenyl)-2-(2-hydroxy-ethoxy)ethyl)-5-methyl-3-((S)-3-methyl-6-oxopiperidin-3-yl)-6-(2H-1,2,3-triazol-2-yl)thieno[2,3-d]pyrimidine-2,4(1H,3H)-dione], the IC50 was 0.7 to 2 nM.

On to `CCN1CC[C@@H](n2c(=O)c3c(C)c(-n4nccn4)sc3n(C[C@H](OC3CCOCC3)c3cc(F)ccc3OC)c2=O)C1=O` [Compound I-151], for which the half-maximal inhibitory concentration (IC50) was in the range of 0.7 to 2 nM.
